One substance from US20080019909A1, “Modulation of Programmed Necrosis” (priority 2003, published 2008) can be followed below.

The subject of this assay is caspase-8 -/- J3.2 cells. In words: TNF cytotoxic assay (cell loss by PI exclusion on FACS), caspase-8 -/- J3.2 cells. As to conditions: caspase 8 -/- J3.2 cells transfected with plasmids; 12 hours stimulation with TNF.

Regarding “XLAP: known apoptosis inhibitor, transfected plasmid”, the “TNF-induced programmed necrosis, transfected apoptosis inhibitors” value is listed as “failed to confer protection”.
